# Literature values as cited in patent publication US6254883A, “Composition for transdermal delivery of drugs” (Novagent Oy, priority 1996, dated 2001).
# Conditions: in vivo, cited from earlier work
smiles,measurement,setting,value
"Nc1c2c(nc3ccccc13)CCCC2 [tacrine, 9-amino-1,2,3,4-tetrahydroacridine]",Clearance CL,human,150 L/h
same,clearance from the systemic circulation (in words),,rapidly cleared from the systemic circulation
